Measured values taken from article PMC3364022.

The chains behind the UniProt entries cited, without tags or fusion partners.
Mcl-1 (Homo sapiens), Q07820, UniProt Q07820, whole entry: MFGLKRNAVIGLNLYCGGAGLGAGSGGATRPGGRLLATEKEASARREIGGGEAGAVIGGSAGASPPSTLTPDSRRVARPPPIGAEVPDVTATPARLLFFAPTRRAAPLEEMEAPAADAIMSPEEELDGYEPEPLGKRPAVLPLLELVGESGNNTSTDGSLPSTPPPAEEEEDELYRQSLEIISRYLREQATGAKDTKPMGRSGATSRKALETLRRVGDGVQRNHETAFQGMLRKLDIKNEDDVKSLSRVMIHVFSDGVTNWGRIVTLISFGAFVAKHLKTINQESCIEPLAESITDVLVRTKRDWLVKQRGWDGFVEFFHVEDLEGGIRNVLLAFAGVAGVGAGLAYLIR

Target: Mcl-1 (Homo sapiens), Q07820
Assay: competition FP
Settings: modification not given

Ki: < 3 nM
Binder: IWIAQELRRIGDEFNAYY [Bim BH3 18-mer peptide 1 BH3, O43521]
